Measurements from article PMC7004151, “Synthesis and Structure‐Activity Relationships of N‐(4‐Benzamidino)‐Oxazolidinones: Potent and Selective Inhibitors of Kallikrein‐Related Peptidase 6” (Chemmedchem, 2019).

What was measured:
Human trypsin = target: T1, Human trypsin (Homo sapiens, UniProt P07477); test: Trypsin enzyme inhibition assay; assay type: biochemical; conditions: KLK6 over trypsin
T1 construct: purchased Polymun Scientific
Description: Human thrombin was purchased from Biopur. Human trypsin was purchased from Polymun Scientific. Human Factor Xa was purchased from Enzo Life Sciences. […] Fluorescence intensity was then read at ex/em 485/535 following incubation for 1 h at room temperature (thrombin and factor Xa) or 20 min (trypsin).

KLK6 = KLK6 (Homo sapiens, UniProt Q92876); test: KLK6 enzymatic inhibition assay (fluorogenic Boc-Phe-Ser-Arg-AMC substrate); assay type: biochemical; set-up: made in house; conditions: LipE=pIC50 – logP (KLK6 pIC50, ALogP)
Description: Using our previously published KLK6 assay format,21 we performed a HTS with the European Lead Factory (ELF),22 and tested ∼350,000 substances at 10 μM for their ability to reduce KLK6‐catalyzed hydrolysis of the fluorogenic Boc‐Phe‐Ser‐Arg‐AMC peptide.
High Throughput Screen: The European Lead Factory library of ∼350,000 compounds was used for high throughput screening at the Pivot Park Screening Center facilities in Oss, The Netherlands. […] For SPR, Biacore T200 was used and KLK6 was immobilized onto a CM5 chip. […] An 8 point 1 in 3 dilution series of 1 (50 μM to 0.02 μM) was also applied at the beginning and end of each screening day.
Enzyme inhibition assays: All chemicals were purchased from Sigma Aldrich (Gillingham, UK) unless otherwise stated.

Which results are given for `CC[C@H](NC(=O)[C@H]1CN(c2ccc(C(=N)N)cc2)C(=O)O1)c1cccc2ccccc12` [Compound 32, (5R)‐3‐(4‐carbamimidoylphenyl)‐N‐((S)‐1‐(naphthalen‐1‐yl)propyl)‐2‐oxooxazolidine‐5‐carboxamide]?
selectivity against trypsin (Human trypsin): over 25 fold; LipE (KLK6): 5.34
